PubChem BioAssay AID624288 (National Center for Advancing Translational Sciences (NCATS), 2012)
The list shows a part of the results, in another mix than the full data. Results filed as inconclusive are left out. The source made the active and inactive calls. Calls follow the shape of the full dose curve; cell line not stated here.

experiment: qHTS for Antagonists of gsp, the Etiologic Mutation Responsible for Fibrous Dysplasia/McCune-Albright Syndrome: qHTS; conditions: gsp-mutant cells, cAMP HTRF, 30 min; at 76.9 µM (top of the series) unless noted; also: nearly all actives have a fitted effect of over 65% in size
% is scaled to controls: 0 for no effect and ±100 for the full control effect.

| Compound | activity change, negative = inhibition |
| --- | --- |
| Cc1cc(N(CCCl)CCCl)ccc1C=O | inactive: 8.17% |
| CCCN1CCC(Nc2cc(OC)cc(OC)c2)CC1 | inactive: -21.7% |
| c1ccc(CN2CCC(Nc3ccccc3)CC2)cc1 | inactive: 3.69% |
| CN(C)C1(CNC(=O)c2cccc(C#N)c2)CCCCC1 | inactive: 8.5% |
| CCOC(=O)C(CC)C1=NC(C)(C)Cc2ccccc21.O=[N+]([O-])c1cc([N+](=O)[O-])c(O)c([N+](=O)[O-])c1 (configuration not stated) | inactive: -15.3% |
| CC(C)(C)OC(=O)N1CCC(N(C(=O)c2ccccc2)c2ccc(Cl)cc2)CC1 | inactive: -18.2% |
| N#Cc1ccc(C(=O)NCC2(N3CCCCC3)CCCCC2)cc1 | inactive: -15.3% |
| O=C(O)c1cccc(Nc2c([N+](=O)[O-])cc([N+](=O)[O-])cc2[N+](=O)[O-])c1 | inactive: -12.6% |
| O=C(OC1CN2CCC1CC2)C1c2ccccc2C=Cc2ccccc21 (configuration not stated) | inactive: 10.9% |
| CCc1cc(C(=O)NCC2(N3CCCCC3)CCCCC2)sc1C | inactive: 5.72% |
| N/C(=N\O)c1c(N)no[n+]1[O-] | inactive: 4.58% [at 15.4 µM] |
| CCOC(=O)N1CCC(Nc2ccc(C)cc2)CC1 | inactive: -5.31% |
| COc1ccc(C(=O)NCC2(N3CCOCC3)CCCCC2)cc1OC | inactive: 6.29% |
| O=C(NCC1(N2CCOCC2)CCCCC1)c1cc(Br)ccc1Cl | inactive: -4.93% |
| COc1cc(C(=O)NCC2(N3CCOCC3)CCCCC2)cc(OC)c1C | inactive: -13.8% |
| CN1CCC(Nc2ccc(Cl)cc2)CC1 | inactive: 4.2% |
| CCC(CO)(C(=O)OC1CN2CCC1CC2)c1ccccc1 (configuration not stated) | inactive: 5.65% |
| COc1cccc(C(=O)N(c2cc(C)cc(C)c2)C2CCN(C(=O)OC(C)(C)C)CC2)c1 | inactive: -20.5% |
| CCCOc1ccc(C(=O)NCC2(N(C)C)CCCCC2)cc1 | inactive: 13.6% |
| O=C(O)C1(Nc2ccccc2)CCN(Cc2ccccc2)CC1 | inactive: 9.87% |
| CC(C)(C)OC(=O)N1CCC(Nc2ccccc2)CC1 | inactive: -3.21% |
| CN1CCC(Nc2ccc(F)c(Cl)c2)CC1 | inactive: -0.82% |
| CCOc1ncccc1C(=O)NCC1(N2CCOCC2)CCCCC1 | inactive: -4.42% |
| Cn1c(=O)[nH]cc(N(CCCl)CCCl)c1=O | inactive: 15.1% |
| CN(C)c1ccc(C(=O)NCC2(N3CCCCC3)CCCCC2)cc1 | inactive: 6.45% |
| O=C(NCC1(N2CCCCC2)CCCCC1)c1ccco1 | inactive: 18% |

| Compound | activity change, negative = inhibition |
| --- | --- |
| CCN1CCC(Nc2cccc(F)c2)CC1 | inactive: 10.8% |
| Cc1ccccc1NC1(C#N)CCN(Cc2ccccc2)CC1 | inactive: 10.7% |
| Cc1ccc(NC2(C#N)CCN(Cc3ccccc3)CC2)cc1 | inactive: -2.7% |
| Fc1ccccc1NC1CCN(Cc2ccccc2)CC1 | inactive: 5.41% |
| Cc1ccc(C(=O)NCC2(N3CCCCC3)CCCCC2)o1 | inactive: 14.8% |
| COc1cc(OC)cc(C(=O)NCC2(N3CCCCC3)CCCCC2)c1 | inactive: 4.12% |
| CC(=O)N(c1ccccc1)C1CCNCC1 | inactive: 5.9% |
| COc1cc(C(=O)NCC2(N(C)C)CCCCC2)ccc1OC(F)F | inactive: 3.76% |
| CCOC(=O)N1CCC(Nc2cccc(C)c2)CC1 | inactive: -1.48% |
| COc1ccc(NC2CCN(CCc3ccccc3)CC2)c(OC)c1 | inactive: -9.32% |
| CCOC(=O)N1CCC(Nc2ccc(F)cc2)CC1 | inactive: -3.53% |
| O=C(NCC1(N2CCCCC2)CCCCC1)c1ccc(F)cc1 | inactive: 13.5% |
| O=P1(N(CCCl)CCCl)SCCCS1 | inactive: 7.68% |
| CCCCOc1ccc(C(=O)NCC2(N3CCOCC3)CCCCC2)cc1 | inactive: -0.511% |
| CCOc1ccc(C)cc1CN(CCCl)CCCl | inactive: -12.9% |
| O=C1CCN(Cc2ccccc2)CC1 | inactive: 9.02% |
| CCOC(=O)N1CCC(Nc2ccc(OC)cc2)CC1 | inactive: 20.9% |
| O=C1C(O)=C([N+](=O)[O-])C(=O)C(O)=C1[N+](=O)[O-] | inactive: 6.37% |
| O=C(OC1CN2CCC1CC2)C1c2ccccc2Oc2ccccc21 (configuration not stated) | inactive: -0.557% |
| O=C(NCC1(N2CCCCC2)CCCCC1)c1ccc(Cl)s1 | inactive: -6.09% |
| N#CC1(Nc2ccccc2)CCN(Cc2ccccc2)CC1 | inactive: -5.86% |
| O=C(NCC1(N2CCOCC2)CCCCC1)c1cc2ccccc2o1 | inactive: -9.79% |
| O=C(NCC1(N2CCCCC2)CCCCC1)c1ccc(Cl)nc1 | inactive: 5.8% |
| Cc1cccc(NC2(C#N)CCN(Cc3ccccc3)CC2)c1 | inactive: -16.3% |
| CSc1ccccc1C(=O)NCC1(N2CCCCC2)CCCCC1 | inactive: -3.49% |
| O=C(NCC1(N2CCCCC2)CCCCC1)c1cccs1 | inactive: 5.39% |

| Compound | activity change, negative = inhibition |
| --- | --- |
| O=C(NCC1(N2CCCCC2)CCCCC1)c1ccc(=O)[nH]c1 | inactive: 1.39% |
| CC(C)(C)OC(=O)N1CCC(N(C(=O)c2ccccc2)c2ccc(F)cc2)CC1 | inactive: 3.23% |
| COc1ccc(C(=O)NCC2(N3CCCCC3)CCCCC2)c(OC)c1OC | inactive: 11.8% |
| CCCOc1ccc(C(=O)NCC2(N(C)C)CCCCC2)cc1OC | inactive: 8.76% |
| O=C(NCC1(N2CCCCC2)CCCCC1)c1cncc(Br)c1 | inactive: 0.154% |
| CN1CCC(Nc2cccc(F)c2)CC1 | inactive: 6.85% |
| O=C(OC1CN2CCC1CC2)c1ccc([N+](=O)[O-])cc1 (configuration not stated) | inactive: 8.52% |
| O=C(NCC1(N2CCOCC2)CCCCC1)c1cc(F)c(F)cc1Cl | inactive: 0.223% |
| COc1cc(OC)c(C(=O)NCC2(N(C)C)CCCCC2)cc1OC | inactive: 9.44% |
| O=[N+]([O-])c1cc([N+](=O)[O-])c(OC2CCCCC2O)c([N+](=O)[O-])c1 (configuration not stated) | inactive: -26.3% |
| CN(C)c1cccc(C(=O)NCC2(N3CCCCC3)CCCCC2)c1 | inactive: 8.1% |
| COc1ccc(CN(CCCl)CCCl)cc1Cl | inactive: 5.47% |
| CC(C)c1ccc(NC2CCN(C(=O)OC(C)(C)C)CC2)cc1 | inactive: -5.91% |
| CN1CCN(CCOC(=O)C(O)(c2ccccc2)c2ccccc2)CC1 | inactive: 0.604% |
| CC(C)c1ccc(C(=O)NCC2(N3CCOCC3)CCCCC2)cc1 | inactive: 1.16% |
| COc1ccc(NC2CCN(C(=O)OC(C)(C)C)CC2)cc1 | inactive: 1.68% |
| COc1cc(C(=O)NCC2(N3CCCCC3)CCCCC2)ccc1OC(F)F | inactive: 13.1% |
| O=C(NCC1(N2CCOCC2)CCCCC1)c1cc(=O)[nH]c2ccccc12 | inactive: 4.52% |
| O=C(NCC1(N2CCCCC2)CCCCC1)c1cccc(C(F)(F)F)c1 | inactive: 9.3% |
| O=[N+]([O-])c1cc([N+](=O)[O-])c(NCC2CCS(=O)(=O)C2)c([N+](=O)[O-])c1 (configuration not stated) | inactive: -4.19% |
| O=C(NCC1(N2CCCCC2)CCCCC1)c1cccc([N+](=O)[O-])c1 | inactive: 4.55% |
| CSc1ccc(C(=O)NCC2(N3CCOCC3)CCCCC2)cc1 | inactive: 1.28% |
| N#CC1(Nc2ccccc2)CCN(CCc2ccccc2)CC1 | inactive: 1.82% |
| CCN1CCC(Nc2ccc(Cl)cc2)CC1 | inactive: 13.2% |
| O=C(NCC1(N2CCCCC2)CCCCC1)c1ccc(OC(F)F)cc1 | inactive: 10.7% |
